Data taken from paper PMC6408513, “A Novel Lactate Dehydrogenase Inhibitor, 1-(Phenylseleno)-4-(Trifluoromethyl) Benzene, Suppresses Tumor Growth through Apoptotic Cell Death” (Scientific Reports, 2019).

Target: lactate dehydrogenase A (LDHA) (Homo sapiens, UniProt P00338)

Q: `NC(=O)C(=O)O` [oxamate] was tested. Which IC50 did it give?
A: 131 µM
